Measured values taken from PubChem BioAssay AID2171 (The Scripps Research Institute Molecular Screening Center, 2009).
This is a selection; strong and weak results do not stand in their true shares. Active and inactive are the calls of the source.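 Rule for the calls: active = inhibition above the hit cutoff set in the earlier primary screen (cut at about 27% in these data); inactive = the rest.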

Sequences of proteins named here, by UniProt entry; tags and fusion partners are left off.
UniProt Q9Y570, whole entry: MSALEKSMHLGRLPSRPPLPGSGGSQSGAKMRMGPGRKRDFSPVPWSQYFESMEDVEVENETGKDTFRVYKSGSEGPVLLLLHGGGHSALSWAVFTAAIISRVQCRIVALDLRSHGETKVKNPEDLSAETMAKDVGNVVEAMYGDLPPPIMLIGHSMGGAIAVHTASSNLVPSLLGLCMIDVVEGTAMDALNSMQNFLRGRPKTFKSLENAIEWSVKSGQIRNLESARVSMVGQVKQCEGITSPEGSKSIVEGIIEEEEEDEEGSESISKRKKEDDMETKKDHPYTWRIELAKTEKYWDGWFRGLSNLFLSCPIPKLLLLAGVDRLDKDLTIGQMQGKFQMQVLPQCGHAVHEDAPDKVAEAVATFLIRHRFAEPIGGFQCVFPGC

Molecular target: Protein phosphatase methylesterase 1 (Homo sapiens) (UniProt Q9Y570)
Assay: human PME-1 methylesterase inhibition confirmation – biochemical, fluorescence polarization, FP-Rh probe, triplicate (AID 2171);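 note: 0% = enzyme with DMSO and 100% = wells lacking PME-1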
Conditions: recombinant PME-1, FP-Rh probe fluorescence polarization; at 5.9 µM; active compounds read high

| Compound | inhibition |
| --- | --- |
| CP(=O)(Nc1ccccc1Br)Oc1ccccc1 (centres undefined) | active: 62.2% |
| COc1ccccc1OP(C)(=O)Nc1c(C)cccc1C (centres undefined) | active: 47.1% |
| CCCCCOc1ccc(NP(C)(=O)Oc2ccc(Cl)cc2Cl)cc1 (centres undefined) | active: 73.8% |
| CCOC(=O)c1ccc(NP(C)(=O)Oc2ccc(Cl)cc2)cc1 (centres undefined) | active: 48% |
